# Permeability data for macrocyclic peptides

Values of Schwochert et al. 2016, doi:10.1021/acsmedchemlett.6b00100, as listed in CycPeptMPDB.

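Lipid, pH, incubation time, direction and concentration are not recorded in the data file. The list need not hold all peptides of the study. Peptides that the database sets to -10, its floor, are left out.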

MDCK: transport across canine kidney epithelial cells.
Permeability is given as log10 of P in cm/s; higher (less negative) is more permeable.

SMILES	MDCK (log10 cm/s)
CC(C)C[C@@H]1NC(=O)[C@H](CC(C)C)NC(=O)[C@@H](CC(C)C)NC(=O)[C@H](Cc2ccccc2)NC(=O)[C@@H]2CCCN2C(=O)[C@@H](Cc2ccccc2)NC1=O	-4.41
CC(C)C[C@@H]1NC(=O)[C@H](CC(C)C)NC(=O)[C@@H](CC(C)C)NC(=O)[C@H](Cc2ccccc2)NC(=O)[C@H]2CCCN2C(=O)[C@@H](Cc2ccccc2)NC1=O	-4.96
CC(C)C[C@@H]1NC(=O)[C@H](CC(C)C)NC(=O)[C@@H](CC(C)C)NC(=O)[C@H](CC(C)C)NC(=O)[C@@H]2CCCN2C(=O)[C@@H](Cc2ccccc2)NC1=O	-4.48
CC(C)C[C@@H]1NC(=O)[C@H](CC(C)C)NC(=O)[C@@H](CC(C)C)NC(=O)[C@H](CC(C)C)NC(=O)[C@H]2CCCN2C(=O)[C@@H](Cc2ccccc2)NC1=O	-5.10
CC[C@H](C)[C@@H]1NC(=O)[C@H](CC(C)C)NC(=O)[C@H](CC(C)C)NC(=O)[C@@H]2CCCN2C(=O)[C@H](Cc2ccccc2)NC(=O)[C@H](CC(C)C)NC1=O	-4.40
CC[C@H](C)[C@@H]1NC(=O)[C@H](CC(C)C)NC(=O)[C@H](CC(C)C)NC(=O)[C@H]2CCCN2C(=O)[C@H](Cc2ccccc2)NC(=O)[C@H](CC(C)C)NC1=O	-4.82